In patent publication US20240209004A1, “BORIC ACID DERIVATIVE ACTING AS Beta-LACTAMASE INHIBITOR” (TUOJIE BIOTECH (SHANGHAI) CO., LTD., priority 2021, published 2024):

Experiments:
[1] = test system: cefepime-resistant Klebsiella pneumoniae expressing different types of β-lactamases; assay type: cell-based; details: summary in words of Test Example 3 (sentence runs over b277-b278)
Experimental: • 1) The antibiotic cefepime was diluted with a corresponding solvent to form a 12.8 mg/mL solution. • 2) QPX-7728 and compound 1-1-Na were made into 3.2 mg/mL solutions in DMSO. • 3) Test trains: cefepime-resistant Klebsiella pneumoniae (ARLG-1127 (Urine), ARLG-1195, ARLG-1196, ATCC BAA-1705, ATCC BAA-1898, ATCC BAA-1899, ATCC BAA-2343, ATCC BAA-2470) expressing different types of β-lactamases, from Eurofins Inc.
The biosafety cabinet was sterilized with ultraviolet light for 30 min. Glycerol tubes were taken out of a −80° C. freezer, and streaks were gently formed in the glycerol tubes using inoculating loops. Bacteria were inoculated onto MHIIA solid plates. The plates were incubated overnight in a 37° C. incubator.
30 μL of compound stock solution was added to column 1 of a 96-well v-bottom plate, and DMSO was added to columns 2-10. Subsequently, 15 μL was transferred from column 1 to column 2 using a pipette and well mixed gently, and then 15 μL of solution was transferred from column 2 to column 3: the serial dilution process proceeded to column 10 (200×β-lactamase inhibitor working solutions were prepared). The antibiotic was diluted with a corresponding solvent to form a 1.6 mg/mL solution.

[2] = Single intravenous administration exposure, pharmacokinetics (Test Example 4); assay type: in vivo, ICR mice; details: mice
Experimental: The compound QPX-7728 disodium salt (synthesized according to CN109415386) and compound 1-1-Na (calculated amount of free drug=weighed amount×correction factor) were accurately weighed out, dissolved first in sterile water for injection to 40 mg/mL, and then diluted with normal saline to concentrations for administration. The solutions were prepared on the day of administration and stored at 4° C.
Single intravenous injections were administered to ICR mice, which were grouped as follows. Blood was collected from the saphenous vein or the fundus venous plexus at 0.083 h, 0.25 h, 0.5 h, 1 h, 2 h, 4 h, 6 h and 12 h after administration (about 0.1 mL/time point). A biological analysis method was developed to determine plasma concentrations at different time points, and related pharmacokinetic parameters were calculated.

SMILES: O=C([O-])c1c2c(cc3c1O[B-](O)(O)[C@@H]1C[C@H]31)OCCO2.[Na+].[Na+] [Compound 1-1-Na]
- restore to cefepime antibacterial activity against cefepime-resistant Klebsiella pneumoniae [1]: significantly
- single intravenous administration exposure relative to that of the QPX7728 disodium salt [2]: about 5 times
